Data published in patent US20160115202A1 (OHIO STATE INNOVATION FOUNDATION, published 2016).

Experiments:
[1] = target: GST-tagged K-Ras G12V protein (Example 4) (UniProt P01116); assay: FA, dye-labeled resynthesized peptide
[2] = target: GST-tagged K-Ras G12V protein (Example 4) (UniProt P01116); assay: FA
[3] = target: GST-tagged K-Ras G12V protein (Example 4) (UniProt P01116); assay: FA, binding in solution

Substance | Kd [2] [µM] | Kd [3] [µM] | other results
peptide 2, bicyclo(Phg-Arg-d-Asn-Pra-Ile-K-FNalR4-Dap)-K |  |  | Kd [1]: 5.1 µM
peptide 5, bicyclo(Ala-Phg-Arg-d-Asn-Pra-Ile-K-FNalR4-Dap)-K | 6.4 |  | 
peptide 6, bicyclo(Phg-Arg-d-Asn-Pra-Ile-Ala-K-FNalR4-Dap)-K | 5.6 |  | 
peptide 11, bicyclo(Ala-d-Leu-Phg-Arg-d-Asn-Pra-Ile-Asp-K-FNalR4-Dap)-K |  | 1.1 | 
peptide 14, bicyclo(d-Ala-Phg-Phg-Arg-d-Asn-Pra-Ile-d-Phe-K-FNalR4-Dap)-K |  | 4.9 | 

Now from value to substance, other results behind:

Kd [2] [µM] | Kd [3] [µM] | Substance | other results
1.8 |  | peptide 7, bicyclo(Ala-Phg-Arg-d-Asn-Pra-Ile-Ala-K-FNalR4-Dap)-K | 
 | 2.5 | peptide 9, bicyclo(d-Ala-Abu-Phg-Arg-d-Asn-Pra-Ile-Abu-K-FNalR4-Dap)-K | 
 | 2.4 | peptide 10, bicyclo(Phg-Ile-Phg-Arg-d-Asn-Pra-Ile-Abu-K-FNalR4-Dap)-K | 
